{"source": "paper PMC3983056", "about": "(PLoS Pathogens, 2014)", "test_system": "HIV p24 antigen in latently infected CD4 T-cell cultures", "assay": "Flow cytometry analysis of p24 expression in the in vitro latency model", "settings": "3.0 µM VOR, 48 hours, live cell gate", "data": [{"smiles": "O=C(CCCCCCC(=O)Nc1ccccc1)NO", "note": "[VOR, suberoylanilide hydroxamic acid]", "values": [{"measurement": "cells expressing p24 antigen", "result": "approximately 4.4%"}, {"measurement": "cells expressing p24 antigen", "setting": "listed as SAHA", "result": 4.4, "unit": "%"}]}]}
